{"source": "paper PMC4011867", "about": "(PLoS ONE, 2014)", "test_system": "A. pisum native nAChRs, [125I]-alpha-bungarotoxin binding sites (alpha-Bgt-sensitive)", "experiment": "[…]-alpha-Bgt competition binding, filtration", "conditions": "read-out: [^125I]-α-Bgt / Bmax (fmol/mg) / [^125I]- α-Bgt / IC50, PBS pH 7.2, 0.1% BSA, room temperature, 4 h, low-affinity site", "note": "Where two headings read alike, the source gives them in different places.", "data": [{"smiles": "CN1COCN(Cc2cnc(Cl)s2)C1=N[N+](=O)[O-]", "note": "[thiamethoxam]", "values": [{"measurement": "IC50", "setting": "0.08 nM [125I]-alpha-Bgt", "value": 1.64, "unit": "µM"}]}, {"smiles": "CN/C(=N\\[N+](=O)[O-])NCc1cnc(Cl)s1", "note": "[clothianidin]", "values": [{"measurement": "IC50", "setting": "0.08 nM [125I]-alpha-Bgt", "value": 0.194, "unit": "µM"}]}, {"smiles": "O=[N+]([O-])N=C1NCCN1Cc1ccc(Cl)nc1", "note": "[imidacloprid]", "values": [{"measurement": "IC50", "setting": "0.6 nM [125I]-alpha-Bgt", "value": 22.3, "unit": "µM"}]}]}
